From US12247064B2, “Modified ligand-gated ion channels and methods of use” (Howard Hughes Medical Institute, priority 2017, dated 2025) come the findings set out here.

By UniProt entry, the sequences of proteins in these tests, tags left out. Chains listed by the source or under a name are the forms on record and can include a tag or linker.
UniProt P36544, with tags, fused parts or gaps L131M limits assumed: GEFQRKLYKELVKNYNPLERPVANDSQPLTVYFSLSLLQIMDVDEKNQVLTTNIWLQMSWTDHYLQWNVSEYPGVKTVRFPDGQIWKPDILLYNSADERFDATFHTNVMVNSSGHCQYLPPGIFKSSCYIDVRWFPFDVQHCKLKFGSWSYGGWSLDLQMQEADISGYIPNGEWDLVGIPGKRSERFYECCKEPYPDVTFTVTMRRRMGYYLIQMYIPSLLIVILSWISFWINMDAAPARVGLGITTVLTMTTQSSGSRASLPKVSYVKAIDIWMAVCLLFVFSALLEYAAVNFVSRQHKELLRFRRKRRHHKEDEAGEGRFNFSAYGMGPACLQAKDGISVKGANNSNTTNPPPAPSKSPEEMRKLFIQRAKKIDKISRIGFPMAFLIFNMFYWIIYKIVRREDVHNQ
UniProt P36544, with tags, fused parts or gaps L131Q limits assumed: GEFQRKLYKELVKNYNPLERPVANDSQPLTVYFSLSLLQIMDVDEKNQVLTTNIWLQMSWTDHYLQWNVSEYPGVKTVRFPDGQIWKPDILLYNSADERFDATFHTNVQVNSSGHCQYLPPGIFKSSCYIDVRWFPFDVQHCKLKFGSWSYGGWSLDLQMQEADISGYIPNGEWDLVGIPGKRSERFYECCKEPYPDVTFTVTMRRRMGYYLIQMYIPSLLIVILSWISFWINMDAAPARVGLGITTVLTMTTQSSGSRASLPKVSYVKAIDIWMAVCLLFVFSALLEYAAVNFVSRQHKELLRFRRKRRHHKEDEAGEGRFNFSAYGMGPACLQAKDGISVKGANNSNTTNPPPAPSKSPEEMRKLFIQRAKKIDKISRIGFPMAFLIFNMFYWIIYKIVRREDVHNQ
UniProt P36544, with tags, fused parts or gaps L131F: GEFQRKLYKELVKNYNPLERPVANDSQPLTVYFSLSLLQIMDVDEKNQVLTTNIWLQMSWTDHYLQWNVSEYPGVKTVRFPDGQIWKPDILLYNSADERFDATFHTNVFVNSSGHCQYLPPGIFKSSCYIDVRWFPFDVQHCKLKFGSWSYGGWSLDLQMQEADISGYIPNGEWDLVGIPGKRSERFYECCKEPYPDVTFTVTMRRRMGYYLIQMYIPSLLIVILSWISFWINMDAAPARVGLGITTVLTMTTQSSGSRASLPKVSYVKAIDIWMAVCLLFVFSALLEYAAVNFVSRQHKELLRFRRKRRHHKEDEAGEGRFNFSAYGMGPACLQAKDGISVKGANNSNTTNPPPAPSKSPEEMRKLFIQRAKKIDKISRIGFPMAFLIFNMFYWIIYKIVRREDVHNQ
UniProt P36544, with tags, fused parts or gaps L131N: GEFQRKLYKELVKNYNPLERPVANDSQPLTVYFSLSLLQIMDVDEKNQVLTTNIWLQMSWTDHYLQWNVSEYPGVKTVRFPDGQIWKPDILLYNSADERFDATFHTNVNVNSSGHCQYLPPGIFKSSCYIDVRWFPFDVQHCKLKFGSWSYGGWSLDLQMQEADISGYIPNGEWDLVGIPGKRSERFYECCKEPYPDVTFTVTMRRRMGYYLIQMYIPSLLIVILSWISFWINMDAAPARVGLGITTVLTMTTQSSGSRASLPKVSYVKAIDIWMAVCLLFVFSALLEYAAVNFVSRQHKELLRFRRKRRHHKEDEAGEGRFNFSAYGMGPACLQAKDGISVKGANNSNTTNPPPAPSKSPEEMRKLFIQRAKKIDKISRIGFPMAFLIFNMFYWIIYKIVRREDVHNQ
UniProt P36544, with tags, fused parts or gaps: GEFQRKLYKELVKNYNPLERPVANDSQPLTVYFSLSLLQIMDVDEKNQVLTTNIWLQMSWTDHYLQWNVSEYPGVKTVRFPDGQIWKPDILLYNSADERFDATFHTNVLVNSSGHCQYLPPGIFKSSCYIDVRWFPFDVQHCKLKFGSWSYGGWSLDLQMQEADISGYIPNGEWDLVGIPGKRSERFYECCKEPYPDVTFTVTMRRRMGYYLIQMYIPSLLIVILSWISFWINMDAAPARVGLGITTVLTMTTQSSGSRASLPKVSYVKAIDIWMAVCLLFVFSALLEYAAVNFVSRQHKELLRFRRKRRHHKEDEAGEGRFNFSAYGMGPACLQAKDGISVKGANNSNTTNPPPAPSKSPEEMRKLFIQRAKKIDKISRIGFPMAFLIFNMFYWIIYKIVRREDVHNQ

Molecules are shown by their SMILES.

As a reminder, the EC50 is the concentration at which the effect is half-maximal. A high value points to weaker potency.

One assay addresses T1, α7^L131M-GlyR (Homo sapiens, UniProt P36544, L131M).
T1 construct: expressed in transfected cells
Format: cell-based.

For the next assay, the target named is T2, α7^L131Q-GlyR (Homo sapiens, UniProt P36544, L131Q).
T2 construct: expressed in transfected cells
Type of assay: cell-based.

For the next assay, the target named is T3, α7^L131F-GlyR (Homo sapiens, UniProt P36544, L131F).
T3 construct: expressed in transfected cells
Type of assay: cell-based.

A further assay addresses T4, α7^L131N-GlyR (Homo sapiens, UniProt P36544, L131N).
T4 construct: expressed in transfected cells
Format: cell-based.

A further assay concerns the target α7-GlyR (Homo sapiens, UniProt P36544). The assay can be described thus: cell-based.

With `Cc1nc2cc3c(cc2nc1-c1ccccc1)C1CNCC3C1` (stereo not drawn) [compound 770], the EC50 at α7^L131M-GlyR is 30 nM; at α7^L131Q-GlyR, > 300 nM; at α7^L131F-GlyR, 34 nM; on α7^L131N-GlyR it was > 10000 nM.
Take `c1ccc(-c2cnc3cc4c(cc3n2)C2CNCC4C2)cc1` (stereo not drawn) [compound 765]: the EC50 at α7^L131N-GlyR was > 10000 nM; on α7-GlyR, > 100000 nM.
